From patent US8258155B2, “Quinine sulfate/bisulfate solid complex; methods of making; and methods of use thereof” (Mutual Pharmaceutical Company, Inc., priority 2008, dated 2012)

Row | water solubility at room temperature | Substance
1 | about 200 milligrams per milliliter | quinine bisulfate tartaric acid co-crystal
2 | about 2 milligrams per milliliter | quinine sulfate acetic acid co-crystal monohydrate (2quinine.H2SO4.CH3COOH.H2O)
